The subject of one test is HSV-1 TK^+ virus. It counts as cell-based, Herpes Virus Simplex type I. The following applies: HSV1 TK^+.
In a further test the test system is HSV-1 TK^− virus. It counts as cell-based, Herpes Virus Simplex type I. The note with it: HSV1 TK^−.

The results in this text go back to patent publication US7628987B2, “Vectors derived from antibodies for transferring substances into cells” (Institut Pasteur, priority 1997, dated 2009).

Like-named read-outs stand apart in the source and are kept apart here.

Regarding `Nc1nc2c(ncn2COCCO)c(=O)[nH]1` [ACYCLOVIR ®, Acyclovir, reference compound], the “optical density, infected cells” value in the test on HSV-1 TK^+ virus (10^−3 M /HSV) was 0.626 ± 0.050; in the test with HSV-1 TK^+ virus (10^−4 M /HSV), 0.587 ± 0.149; with HSV-1 TK^+ virus (10^−5 M /HSV) it was 0.223 ± 0.017; in the test with HSV-1 TK^+ virus (10^−6 M /HSV) it was 0.235 ± 0.032; in the test on HSV-1 TK^− virus (10^−3 M /HSV) it was 0.289 ± 0.055; in the test with HSV-1 TK^− virus (10^−4 M /HSV), 0.173 ± 0.001. The “optical density, infected cells” value in the test on HSV-1 TK^− virus (10^−5 M /HSV) is recorded as 0.169 ± 0.019; with HSV-1 TK^− virus (10^−6 M /HSV) it was 0.239 ± 0.111.
